Rango-impB inh – Rango-importin beta binding inhibition; Q14974; Rango CFP/YFP FRET sensor + importin beta, 45 min; Potency, µM (doses to about 92.2 µM), inactives show at the top dose inhibition of complex formation; 0.031% of 340,000 active; calls by dose curve;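 further: 0% = DMSO wells and 100% = buffer wells lacking importin beta; nearly all actives have a fitted effect of over 15% in size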
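FRET biosensor (snurportin 1 IBB flanked by EYFP and cerulean), 50 nM, with compound 5 min, then 0.125 microM importin beta in PBS, 1 mM DTT, 0.02% Tween-20, 0.1% BSA. CFP/YFP ratio read after 45 min at room temperature; pre-read flags interference.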
EPAC2 antag – blocks human EPAC2 exchange factor; Q8WZA2; EPAC2 GEF exchange of Rap1B-BODIPY-GDP, fluorescence; Potency, µM (doses to about 114 µM), inactives show at the highest dose activity, negative = inhibition, actives largely listed as inhibitors; 0.18% of 360,000 active; further: on the % scale 0 is the no-effect control and ±100 the full control effect; nearly all actives have a fitted effect of over 45% in size
EPAC1 agonist – EPAC1 (human) agonism; O95398; EPAC1 agonist qHTS, biochemical assay; response scale: 100% = response to 6.5 mM cAMP; Potency, µM (top dose mostly 154 µM), inactives show at the top dose activation, hits mostly activators; 0.073% of 360,000 active; AID 720707; further: nearly all actives have a fitted effect of over 60% in size
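Read-out is the fluorescence drop as BODIPY-GDP leaves Rap1B (480 nm excitation, 540 nm emission), recorded every 5 minutes over 30 minutes. Reactions held 100 nM EPAC1, 250 nM Rap1B–BODIPY-GDP and 50 uM GDP, with 6.5 mM cAMP setting full activation.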
Rango release inh – prevents RanGTP from dissociating the Rango-importin beta complex. O95149+P62826. Biochemical FRET Rango-importin beta, RanGTP-induced dissociation. Potency, µM (highest dose often 46.1 µM), for the others: at the top dose activity change, negative = inhibition. 0.071% of 340,000 active. AID 540253; calls by dose curve; further: % of control where 0% means no effect; nearly all actives have a fitted effect of over 45% in size
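Quantitative HTS using a FRET biosensor: 0.1 uM Rango, 0.25 uM importin beta, 0.6 uM Ran, 2 mM GTP, 0.2 uM RCC1 final, PBS with DTT, Tween-20 and BSA. Post-read taken 45 min after Ran addition.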
EPAC2 ag – agonists of human EPAC2 (RAPGEF4); Q8WZA2; EPAC2 activation, biochemical qHTS; response scale: 100% = 6.5 mM cAMP response; Potency, µM (doses to about 154 µM), for inactives: at the highest dose activation, most hits filed as activators; 0.079% of 360,000 active; further: nearly all actives have a fitted effect of over 50% in size
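In this primary screen, activation is scored as increased exchange of BODIPY-GDP from Rap1B by 100 nM EPAC2, with 50 uM GDP as competitor. Signal is normalized to the 6.5 mM cAMP agonist control.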
EPAC1 antagonist – blocks human EPAC1 exchange factor; EPAC1 GEF assay, Rap1b-BODIPY-GDP exchange fluorescence; O95398; 0.14% of 360,000 active; Potency, µM (highest dose often 115 µM), for inactives: at the highest dose activity change, negative = inhibition, most hits filed as inhibitors;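 further: plate controls were vehicle for no effect and positive control for full effect; nearly all actives have a fitted effect of over 50% in size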
The depositor's hits bear a star; u = inconclusive; x = no result given; ! = not active in a repeat; [ ] = remark or other dose. Sampled rows, rich in hits. Any-hit rate of the full collection: about 0.48%. Unless noted, the call rests on the fitted dose curve; in most records, active means well fitted curve in the direction sought with a large enough effect; inconclusive means small, poorly fitted or top-dose-only effect, or another doubt; inactive means no such curve, though single readings can be large; an effect the other way counts as inactive or inconclusive. Potency means the concentration at half of the fitted maximal effect.

Screens in order – Rango-impB inh, EPAC2 antag, EPAC1 agonist, Rango release inh, EPAC2 ag, EPAC1 antagonist
1) CCN1C(=O)[C@@H]2[C@@H]3CN(S(=O)(=O)c4ccc(C)cc4)[C@@H](c4ccccc4Cl)[C@@H]3C(=O)C[C@@H]2C1=O
    x, 6%, -3%, x, 3%, u
2) NC(=O)c1sc(=S)n2c1[nH]c(=O)c1sccc12
    u, 40µM*, 10%, u, -4%, u
3) Oc1ccc(/C=C/c2ccc3ccccc3n2)cc1
    u, -4%, -9%, 18µM*, 11%, -10%
4) C(=C\c1ccc2ccccc2n1)/c1ccccc1
    0%, -8%, 5%, 9%, 8%, -14%
5) Oc1cc(Nc2ccncc2)cc2cccnc12
    41µM*, 14%, -18%, u, 6%, 1%
6) Cc1cc(Nc2ccccc2)nc2cc(O)ccc12
    u, -14%, -9%, 7.3µM*, 13%, -3%
7) COc1cccc2cc(C(C)N(CCCN3CCOCC3)C(=S)Nc3cccc(C)c3)oc12 (stereo unspecified)
    -5%, -8%, 9%, 18%, 21%, 56µM*
8) COc1cccc2cc(C(C)N(CCCN3CCOCC3)C(=S)Nc3cc(C)cc(C)c3)oc12 (stereo unspecified)
    -1%, -1%, -2%, -7%, -1%, u
9) NC(=O)c1cc2ccc(O)cc2oc1=NCc1ccccc1
    u, 36%, 19%, u, 100µM*, 15%
10) O=C(NCCN1CCOCC1)C1CC(=O)N(c2cccc(C(F)(F)F)c2)C1 (stereo unspecified)
    1%, 18%, 6%, 2%, -2%, -13%
11) Brc1ccc(-c2csc(-c3c[nH]c4ccccc34)n2)cc1
    -3%, -4%, 16%, 5%, 40µM*, -5%
12) Cc1cc(Br)ccc1NC(=O)C1CCN(C(=O)c2ccco2)CC1
    4%, -19%, 4%, 23%, 8%, -3%
13) O=C(Nc1ccc2nc(-c3ccco3)c(-c3ccco3)nc2c1)NC1CC1
    u, 13%, 1%, u, 6%, 50µM*
14) O=C(Nc1cccc(C(F)(F)F)c1)c1ccc2nc(-c3ccco3)c(-c3ccco3)nc2c1
    u, u, -30%, u, -28%, 35µM*
15) O=C(Nc1ccc(N2CCOCC2)cc1)Nc1ccc2nc(-c3ccco3)c(-c3ccco3)nc2c1
    u, 8%, 5%, u, 7%, 15%
16) CC(CNC1CCCCC1)OC(=O)c1ccc([N+](=O)[O-])cc1 (stereo unspecified)
    -3%, 3%, 1%, 2%, 2%, 7%
17) CCCCOc1ccc(C(=O)NCC(=O)NCCCn2nc(C)cc2C)cc1
    -4%, -3%, -12%, 1%, -2%, 0%
18) Cc1cc(C)n(CCOc2ccc(Br)cc2)n1
    -3%, 35µM*, 9%, -9%, 4%, 12%
19) COc1cccc(CN2C(=O)C(C)Oc3ccccc32)c1 (stereo unspecified)
    -1%, -16%, 12%, 11%, 1%, -8%
20) COc1cc(CN2C(=O)C(C)ON=C2c2ccccc2F)cc(OC)c1 (stereo unspecified)
    x, 32µM*, -5%, x, 3%, -3%

Complete entries as entered above:
CC(CNC1CCCCC1)OC(=O)c1ccc([N+](=O)[O-])cc1 (stereo unspecified) reads Rango-impB inh = -3%; EPAC2 antag = 3%; EPAC1 agonist = 1%; Rango release inh = 2%; EPAC2 ag = 2%; EPAC1 antagonist = 7%
Cc1cc(C)n(CCOc2ccc(Br)cc2)n1 reads Rango-impB inh = -3%; EPAC2 antag = 35µM*; EPAC1 agonist = 9%; Rango release inh = -9%; EPAC2 ag = 4%; EPAC1 antagonist = 12%

(cont.)
Screens in order – Rango-impB inh, EPAC2 antag, EPAC1 agonist, Rango release inh, EPAC2 ag, EPAC1 antagonist
21) CCCCCCCCCCCCCCCC[n+]1cccc(C(=O)N(CC)CC)c1
    73µM*!, -18%, 1%, u, 12%, -22%
22) COc1ccc(C2C=C(C)Nc3nc(SC)nn32)cc1 (stereo unspecified)
    u, 10%, 2%, 18µM*, -84%[15.6 µM], -1%
23) CCCn1c(O)c(N=Nc2ccc3ccccc3n2)c2ccccc21
    0%, 68%, -5%, -6%, 89µM*, 1%
24) CC(C)CCn1c(O)c(N=Nc2ccccn2)c2ccccc21
    2%, -5%, 13%, -11%, 12%, 2%
25) O=C(N/N=C/c1c(O)ccc2ccccc12)Nc1ccccc1
    65µM*, -4%, -26%, u, -3%, 5%

Screening results from PubChem BioAssay.
